PubChem BioAssay (NCI)
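How tested: cells in 96-well plates exposed to compound for 48 hours at five concentrations. GI50 is the concentration that inhibits growth by half. TGI marks complete inhibition of growth.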

Experiments:
Assay in all cases: DTP human tumour cell line panel, 48 h
[1] = tested on: 786-0 renal
[2] = tested on: A498 renal
[3] = tested on: A549 NSCLC
[4] = tested on: ACHN renal
[5] = tested on: BT-549 breast
[6] = tested on: CAKI-1 renal
[7] = tested on: CCRF-CEM leukemia
[8] = tested on: COLO 205 colon
[9] = tested on: DU-145 prostate
[10] = tested on: EKVX NSCLC
[11] = tested on: HCC-2998 colon
[12] = tested on: HCT-116 colon
[13] = tested on: HCT-15 colon
[14] = tested on: HL-60(TB) leukemia
[15] = tested on: HOP-92 NSCLC
[16] = tested on: HS 578T breast
[17] = tested on: HT29 colon
[18] = tested on: IGROV1 ovarian
[19] = tested on: K-562 leukemia
[20] = tested on: KM12 colon
[21] = tested on: LOX IMVI melanoma
[22] = tested on: M14 melanoma
[23] = tested on: MALME-3M melanoma
[24] = tested on: MCF7 breast
[25] = tested on: MDA-MB-231 breast
[26] = tested on: MDA-MB-435
[27] = tested on: MDA-N
[28] = tested on: MOLT-4 leukemia
[29] = tested on: NCI-H226 lung
[30] = tested on: NCI-H23 lung
[31] = tested on: NCI-H322M lung
[32] = tested on: NCI-H460 lung
[33] = tested on: NCI-H522 lung
[34] = tested on: NCI/ADR-RES ovarian
[35] = tested on: OVCAR-3 ovarian
[36] = tested on: OVCAR-4 ovarian
[37] = tested on: OVCAR-5 ovarian
[38] = tested on: OVCAR-8 ovarian
[39] = tested on: PC-3 prostate
[40] = tested on: RPMI-8226 leukemia
[41] = tested on: SF-268 CNS
[42] = tested on: SF-295 CNS
[43] = tested on: SF-539 CNS
[44] = tested on: SK-MEL-2 melanoma
[45] = tested on: SK-MEL-28 melanoma
[46] = tested on: SK-MEL-5 melanoma
[47] = tested on: SK-OV-3 ovarian
[48] = tested on: SN12C renal
[49] = tested on: SNB-19 CNS
[50] = tested on: SNB-75 CNS
[51] = tested on: SW-620 colon
[52] = tested on: T-47D breast
[53] = tested on: TK-10 renal
[54] = tested on: U251 CNS
[55] = tested on: UACC-257 melanoma
[56] = tested on: UACC-62 melanoma
[57] = tested on: UO-31 renal
[58] = tested on: HOP-62 NSCLC
[59] = tested on: RXF 393 renal

SMILES: COc1ccc2c(c1)C1(C)CCC(O2)C12CO2 (centres undefined)
- GI50 [1]: 71.1 µM
- TGI [1]: > 100 µM
- GI50 [2]: > 100 µM
- TGI [2]: > 100 µM
- GI50 [3]: > 100 µM
- TGI [3]: > 100 µM
- GI50 [4]: 60 µM
- TGI [4]: > 100 µM
- GI50 [5]: 56.9 µM
- TGI [5]: > 100 µM
- GI50 [6]: > 100 µM
- TGI [6]: > 100 µM
- GI50 [7]: 48 µM
- TGI [7]: > 100 µM
- GI50 [8]: > 100 µM
- TGI [8]: > 100 µM
- GI50 [9]: > 100 µM
- TGI [9]: > 100 µM
- GI50 [10]: > 100 µM
- TGI [10]: > 100 µM
- GI50 [11]: > 100 µM
- TGI [11]: > 100 µM
- GI50 [12]: 44.9 µM
- TGI [12]: > 100 µM
- GI50 [13]: 50.6 µM
- TGI [13]: > 100 µM
- GI50 [14]: 24.4 µM
- TGI [14]: 67.4 µM
- GI50 [15]: > 100 µM
- TGI [15]: > 100 µM
- GI50 [16]: 13.2 µM
- TGI [16]: > 100 µM
- GI50 [17]: 60.1 µM
- TGI [17]: > 100 µM
- GI50 [18]: > 100 µM
- TGI [18]: > 100 µM
- GI50 [19]: 58.4 µM
- TGI [19]: > 100 µM
- GI50 [20]: 61.7 µM
- TGI [20]: > 100 µM
- GI50 [21]: 26.7 µM
- TGI [21]: > 100 µM
- GI50 [22]: 45.8 µM
- TGI [22]: > 100 µM
- GI50 [23]: > 100 µM
- TGI [23]: > 100 µM
- GI50 [24]: 46.5 µM
- TGI [24]: > 100 µM
- GI50 [25]: > 100 µM
- TGI [25]: > 100 µM
- GI50 [26]: 45.3 µM
- TGI [26]: > 100 µM
- GI50 [27]: 40.9 µM
- TGI [27]: > 100 µM
- GI50 [28]: 25.5 µM
- TGI [28]: > 100 µM
- GI50 [29]: > 100 µM
- TGI [29]: > 100 µM
- GI50 [30]: > 100 µM
- TGI [30]: > 100 µM
- GI50 [31]: > 100 µM
- TGI [31]: > 100 µM
- GI50 [32]: > 100 µM
- TGI [32]: > 100 µM
- GI50 [33]: 63.1 µM
- TGI [33]: > 100 µM
- GI50 [34]: 30.9 µM
- TGI [34]: > 100 µM
- GI50 [35]: > 100 µM
- TGI [35]: > 100 µM
- GI50 [36]: > 100 µM
- TGI [36]: > 100 µM
- GI50 [37]: > 100 µM
- TGI [37]: > 100 µM
- GI50 [38]: 37.4 µM
- TGI [38]: > 100 µM
- GI50 [39]: > 100 µM
- TGI [39]: > 100 µM
- GI50 [40]: > 100 µM
- TGI [40]: > 100 µM
- GI50 [41]: 27.2 µM
- TGI [41]: > 100 µM
- GI50 [42]: 65.2 µM
- TGI [42]: > 100 µM
- GI50 [43]: > 100 µM
- TGI [43]: > 100 µM
- GI50 [44]: 66.8 µM
- TGI [44]: > 100 µM
- GI50 [45]: 42.9 µM
- TGI [45]: > 100 µM
- GI50 [46]: > 100 µM
- TGI [46]: > 100 µM
- GI50 [47]: > 100 µM
- TGI [47]: > 100 µM
- GI50 [48]: 34.7 µM
- TGI [48]: > 100 µM
- GI50 [49]: > 100 µM
- TGI [49]: > 100 µM
- GI50 [50]: > 100 µM
- TGI [50]: > 100 µM
- GI50 [51]: 32.8 µM
- TGI [51]: > 100 µM
- GI50 [52]: > 100 µM
- TGI [52]: > 100 µM
- GI50 [53]: 96.5 µM
- TGI [53]: > 100 µM
- GI50 [54]: > 100 µM
- TGI [54]: > 100 µM
- GI50 [55]: > 100 µM
- TGI [55]: > 100 µM
- GI50 [56]: 72.4 µM
- TGI [56]: > 100 µM
- GI50 [57]: 29.7 µM
- TGI [57]: > 100 µM

SMILES: O=[N+]([O-])C1([N+](=O)[O-])CC2(Cc3c1no[n+]3[O-])OCCO2
- GI50 [1]: 35.7 µM
- TGI [1]: > 100 µM
- GI50 [2]: 85.7 µM
- TGI [2]: > 100 µM
- GI50 [3]: 21.2 µM
- TGI [3]: 50.5 µM
- GI50 [4]: 42.1 µM
- TGI [4]: > 100 µM
- GI50 [6]: 55.1 µM
- TGI [6]: > 100 µM
- GI50 [7]: 29.4 µM
- TGI [7]: 81.4 µM
- GI50 [8]: 9.48 µM
- TGI [8]: 24.1 µM
- GI50 [9]: > 100 µM
- TGI [9]: > 100 µM
- GI50 [10]: 56.4 µM
- TGI [10]: > 100 µM
- GI50 [12]: 20.1 µM
- TGI [12]: 48.3 µM
- GI50 [13]: 25.3 µM
- TGI [13]: 57.7 µM
- GI50 [14]: 29.7 µM
- TGI [14]: 53.7 µM
- GI50 [58]: 29.6 µM
- TGI [58]: 69.8 µM
- GI50 [16]: 49.5 µM
- TGI [16]: > 100 µM
- GI50 [17]: 11.6 µM
- TGI [17]: 39.2 µM
- GI50 [18]: 44.2 µM
- TGI [18]: > 100 µM
- GI50 [19]: 37.8 µM
- TGI [19]: > 100 µM
- GI50 [20]: 8.92 µM
- TGI [20]: 28.7 µM
- GI50 [21]: 14.9 µM
- TGI [21]: 40.7 µM
- GI50 [22]: 15.1 µM
- TGI [22]: 30.7 µM
- GI50 [23]: 19 µM
- TGI [23]: 35 µM
- GI50 [24]: 25.1 µM
- TGI [24]: 82.5 µM
- GI50 [25]: 27.6 µM
- TGI [25]: 59.1 µM
- GI50 [26]: 16.5 µM
- TGI [26]: 55.8 µM
- GI50 [27]: 15.4 µM
- TGI [27]: > 100 µM
- GI50 [28]: 29.1 µM
- TGI [28]: 71 µM
- GI50 [29]: > 100 µM
- TGI [29]: > 100 µM
- GI50 [30]: 27.8 µM
- TGI [30]: 66.9 µM
- GI50 [31]: 35 µM
- TGI [31]: > 100 µM
- GI50 [32]: 16.5 µM
- TGI [32]: 35.3 µM
- GI50 [33]: 29.1 µM
- TGI [33]: 82.7 µM
- GI50 [34]: 42.6 µM
- TGI [34]: > 100 µM
- GI50 [35]: 16.1 µM
- TGI [35]: 41.1 µM
- GI50 [36]: 20.4 µM
- TGI [36]: 51.3 µM
- GI50 [37]: 45.4 µM
- TGI [37]: > 100 µM
- GI50 [38]: 21.1 µM
- TGI [38]: > 100 µM
- GI50 [39]: 32.8 µM
- TGI [39]: > 100 µM
- GI50 [40]: 37.5 µM
- TGI [40]: 87.2 µM
- GI50 [59]: 29.5 µM
- TGI [59]: 93.2 µM
- GI50 [41]: 62.4 µM
- TGI [41]: > 100 µM
- GI50 [42]: > 100 µM
- TGI [42]: > 100 µM
- GI50 [43]: 27.6 µM
- TGI [43]: 54.7 µM
- GI50 [44]: 40.4 µM
- TGI [44]: > 100 µM
- GI50 [45]: 39.4 µM
- TGI [45]: > 100 µM
- GI50 [46]: 31.5 µM
- TGI [46]: 59.5 µM
- GI50 [47]: > 100 µM
- TGI [47]: > 100 µM
- GI50 [48]: 45 µM
- TGI [48]: > 100 µM
- GI50 [49]: 90 µM
- TGI [49]: > 100 µM
- GI50 [50]: 28.7 µM
- TGI [50]: 90.1 µM
- GI50 [51]: 19.4 µM
- TGI [51]: 38.9 µM
- GI50 [52]: 15.4 µM
- TGI [52]: > 100 µM
- GI50 [53]: 23.2 µM
- TGI [53]: 64.5 µM
- GI50 [55]: 18.2 µM
- TGI [55]: 40.3 µM
- GI50 [56]: 38.8 µM
- TGI [56]: > 100 µM
- GI50 [57]: 18.6 µM
- TGI [57]: 38.6 µM
